Test results as given in US10730889B2, “Amido spirocyclic amide and sulfonamide derivatives” (Forma TM, LLC, priority 2012, dated 2020).

The chains behind the UniProt entries cited, without tags or fusion partners. Where a name states a change or a piece, a line headed by the entry shows the natural chain unless it says otherwise.
UniProt P43490: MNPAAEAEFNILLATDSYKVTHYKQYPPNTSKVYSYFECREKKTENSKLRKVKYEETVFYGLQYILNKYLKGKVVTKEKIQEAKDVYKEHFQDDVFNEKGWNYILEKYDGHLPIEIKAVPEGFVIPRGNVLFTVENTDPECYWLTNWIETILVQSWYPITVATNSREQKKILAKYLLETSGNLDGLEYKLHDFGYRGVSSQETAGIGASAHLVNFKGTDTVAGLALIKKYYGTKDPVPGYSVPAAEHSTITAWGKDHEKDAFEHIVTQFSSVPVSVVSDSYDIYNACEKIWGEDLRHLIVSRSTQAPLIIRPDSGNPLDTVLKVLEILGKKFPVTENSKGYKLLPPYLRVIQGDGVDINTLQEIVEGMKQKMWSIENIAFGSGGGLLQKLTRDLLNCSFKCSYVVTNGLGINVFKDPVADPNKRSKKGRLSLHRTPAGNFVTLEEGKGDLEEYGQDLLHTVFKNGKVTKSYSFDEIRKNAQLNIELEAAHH

The molecules below were run against NAMPT (Homo sapiens (Human), UniProt P43490) (assay: Biochemical inhibition assay (NAMPT enzymatic reaction, NMN quantified by mass spectrometry)).

Row | IC50 [µM] | SMILES
1 | 0.0376 | O=C(Cc1ccccn1)N1CCC2(CC1)CC2CNC(=O)N1Cc2ccncc2C1 (stereo not drawn) [Example 176, N-[[6-[2-(2-pyridyl)acetyl]-6-azaspiro[2.5]octan-2-yl]methyl] 1,3-dihydropyrrolo[3,4-c]pyridine-2-carboxamide]
2 | 0.0363 | O=C(Cc1cccnc1)N1CCC2(CC1)CC2CNC(=O)N1Cc2ccncc2C1 (stereo not drawn) [Example 177]
3 | 0.034 | O=C(NCC1CC12CCN(C(=O)c1ccc(-n3cncn3)cc1)CC2)c1cc2ccncc2o1 (stereo not drawn) [Example 179, N-[[6-[4-(1,2,4-triazol-1-yl)benzoyl]-6-azaspiro[2.5]octan-2-yl]methyl]furo[2,3-c]pyridine-2-carboxamide]
4 | 2 | Cc1nccn1CC(=O)N1CCC2(CC1)CC2CNC(=O)c1cc2ccncc2o1 (stereo not drawn) [Example 180, N-[[6-[2-(2-methylimidazol-1-yl)acetyl]-6-azaspiro[2.5]octan-2-yl]methyl]furo[2,3-c]pyridine-2-carboxamide]
5 | 0.0173 | Cc1nn(C)c(C)c1C(=O)N1CCC2(CC1)CC2CNC(=O)c1cc2ccncc2o1 (stereo not drawn) [Example 181, N-[[6-(1,3,5-trimethylpyrazole-4-carbonyl)-6-azaspiro[2.5]octan-2-yl]methyl]furo[2,3-c]pyridine-2-carboxamide]
6 | 0.255 | CC(C)(C)NC(=O)N1CCC2(CC1)CC2CNC(=O)c1cc2ccncc2o1 (stereo not drawn) [Example 182, N-[[6-(tert-butylcarbamoyl)-6-azaspiro[2.5]octan-2-yl]methyl]furo[2,3-c]pyndine-2-carboxamide]
7 | 0.314 | CC(C)NC(=O)N1CCC2(CC1)CC2CNC(=O)c1cc2ccncc2o1 (stereo not drawn) [Example 183, N-[[6-(isopropylcarbamoyl)-6-azaspiro[2.5]octan-2-yl]methyl]furo[2,3-c]pyridine-2-carboxamide]
8 | 0.422 | O=C(NCC1CC12CCN(C(=O)NCC1CCCCC1)CC2)c1cc2ccncc2o1 (stereo not drawn) [Example 184, N-[[6-(cyclohexylmethylcarbamoyl)-6-azaspiro[2.5]octan-2-yl]methyl]furo[2,3-c]pyridine-2-carboxamide]
9 | 0.502 | CCCNC(=O)N1CCC2(CC1)CC2CNC(=O)c1cc2ccncc2o1 (stereo not drawn) [Example 185, N-[[6-(propylcarbamoyl)-6-azaspiro[2.5]octan-2-yl]methyl]furo[2,3-c]pyridine-2-carboxamide]
10 | 0.0972 | O=C(NCC1CC12CCN(C(=O)NC1CCCCC1)CC2)c1cc2ccncc2o1 (stereo not drawn) [Example 186, N-[[6-(cyclohexylcarbamoyl)-6-azaspiro[2.5]octan-2-yl)methyl]furo[2,3-c]pyridine-2-carboxamide]
11 | 0.0446 | O=C(NCC1CC12CCN(C(=O)Nc1ccccc1)CC2)c1cc2ccncc2o1 (stereo not drawn) [Example 187, N-[[6-(phenylcarbamoyl)-6-azaspiro[2.5]octan-2-yl]methyl]furo[2,3-c]pyridine-2-carboxamide]
12 | 0.0301 | CC(C)N1CCC(CC(=O)N2CCC3(CC2)CC3CNC(=O)N2Cc3ccncc3C2)CC1 (stereo not drawn) [Example 188, N-[[6-[2-(1-isopropyl-4-piperidyl)acetyl]-6-azaspiro[2.5]octan-2-yl]methyl]-1,3-dihydropyrrolo[3,4-c]pyridine-2-carboxamide]
13 | 0.0312 | O=C(Cc1ccncc1)N1CCC2(CC1)CC2CNC(=O)N1Cc2ccncc2C1 (stereo not drawn) [Example 190, N-[[6-[2-(4-pyridyl)acetyl]-6-azaspiro[2.5]octan-2-yl]methyl]-1,3-dihydropyrrolo[3,4-c]pyridine-2-carboxamide]
14 | 0.156 | N#CCC(=O)N1CCC2(CC1)CC2CNC(=O)N1Cc2ccncc2C1 (stereo not drawn) [Example 191, N-[[6-(2-cyanoacetyl)-6-azaspiro[2.5]octan-2-yl]methyl]-1,3-dihydropyrrolo[3,4-c]pyridine-2-carboxamide]
15 | 0.212 | CC(C)(C)OC(=O)N1CCC2(CC1)CC(CNC(=O)c1cc3cnccc3[nH]1)C2 [Example 193, tert-butyl 2-[(1H-pyrrolo[3,2-c]pyridine-2-carbonylamino)methyl]-7-azaspiro[3.5]nonane-7-carboxylate]
16 | 0.668 | CC(C)(C)OC(=O)N1CCC2(CC1)CC(CNC(=O)c1cc3ccncc3o1)C2 [Example 194, tert-butyl 2-[(furo[2,3-c]pyridine-2-carbonylamino)methyl]-7-azaspiro[3.5]nonane-7-carboxylate]
17 | 0.0785 | CC1(CC(=O)N2CCC3(CC2)CC3CNC(=O)c2cc3ccncc3o2)COC1 (stereo not drawn) [Example 195, N-[[6-[2-(3-methyloxetan-3-yl)acetyl]-6-azaspiro[2.5]octan-2-yl]methyl]furo[2,3-c]pyridine-2-carboxamide]
18 | 0.0144 | O=C(CC1CCCCC1)N1CCC2(CC1)CC2CNC(=O)N1Cc2ccncc2C1 (stereo not drawn) [Example 196, N-[[6-(2-cyclohexylacetyl)-6-azaspiro[2.5]octan-2-yl]methyl]-1,3-dihydropyrrolo[3,4-c]pyridine-2-carboxamide]
19 | 0.131 | O=C(CN1CCOCC1)N1CCC2(CC1)CC2CNC(=O)N1Cc2ccncc2C1 (stereo not drawn) [Example 198, N-[[6-(2-morpholinoacetyl)-6-azaspiro[2.5]octan-2-yl]methyl]-1,3-dihydropyrrolo[3,4-c]pyridine-2-carboxamide]
20 | 0.00456 | CC(C)(C)OC(=O)N1CCC2(CC1)CC(CNC(=O)N1Cc3ccncc3C1)C2 [Example 200, tert-butyl 2-[(1,3-dihydropyrrolo[3,4-c]pyridine-2-carbonylamino)methyl]-7-azaspiro[3.5]nonane-7-carboxylate]
21 | 0.0173 | O=C(Cc1cc(F)cc(F)c1)N1CCC2(CC1)CC2CNC(=O)N1Cc2ccncc2C1 (stereo not drawn) [Example 201, N-[[6-[2-(3,5-difluorophenyl)acetyl]-6-azaspiro[2.5]octan-2-yl]methyl]-1,3-dihydropyrrolo[3,4-c]pyridine-2-carboxamide]
22 | 0.544 | CC(C)(C)NC(=O)N1CCC2(CC1)CC2CNC(=O)c1cc2cnccc2[nH]1 (stereo not drawn) [Example 203, N-[[6-(tert-butylcarbamoyl)-6-azaspiro[2.5]octan-2-yl]methyl]-1H-pyrrolo[3,2-c]pyridine-2-carboxamide]
23 | 0.108 | COC(=O)C(C)(C)OC(=O)N1CCC2(CC1)CC2CNC(=O)c1cc2ccncc2o1 (stereo not drawn) [Example 205, (2-methoxy-1,1-dimethyl-2-oxo-ethyl) 2-[(furo[2,3-c]pyridine-2-carbonylamino)methyl]-6-azaspiro[2.5]octane-6-carboxylate]
24 | 0.0347 | O=C(NCC1CC12CCN(C(=O)Nc1ccccc1)CC2)N1Cc2ccncc2C1 (stereo not drawn) [Example 208, N-[[6-(phenylcarbamoyl)-6-azaspiro[2.5]octan-2-yl]methyl]-1,3-dihydropyrrolo[3,4-c]pyridine-2-carboxamide]
25 | 0.0588 | O=C(NCc1ccccc1)N1CCC2(CC1)CC2CNC(=O)N1Cc2ccncc2C1 (stereo not drawn) [Example 210, N-[[6-(benzylcarbamoyl)-6-azaspiro[2.5]octan-2-yl]methyl]-1,3-dihydropyrrolo[3,4-c]pyridine-2-carboxamide]
26 | 0.0278 | O=C(NCC1CC12CCN(S(=O)(=O)Cc1ccccc1)CC2)N1Cc2ccncc2C1 (stereo not drawn) [Example 211, N-[(6-benzylsulfonyl-6-azaspiro[2.5]octan-2-yl)methyl]-1,3-dihydropyrrolo[3,4-c]pyridine-2-carboxamide]
27 | 0.0178 | Cn1cc(C(=O)N2CCC3(CC2)CC3CNC(=O)N2Cc3ccncc3C2)cn1 (stereo not drawn) [Example 221, N-[[6-(1-methylpyrazole-4-carbonyl)-6-azaspiro[2.5]octan-2-yl]methyl]-1,3-dihydropyrrolo[3,4-c]pyridine-2-carboxamide]
